The results in this text go back to ChEMBL document CHEMBL4725359, “Development of Potent PfCLK3 Inhibitors Based on TCMDC-135051 as a New Class of Antimalarials” (J Med Chem, 2020).

Experiment [1] has as its system Plasmodium falciparum. In words: microbe, parasite or virus in culture.
The test system of experiment [2] is Plasmodium falciparum. In words: Antimalarial activity against chloroquine-sensitive synchronized ring stage of Plasmodium falciparum 3D7 incubated for 48 to 52 hrs by SYBR green 1 dye based assay. In kind it is functional, organism-based.

On to `CCN(CC)Cc1ccc(OC)c(-c2cc3c(-c4ccc(C(=O)O)c(C(C)C)c4)ccnc3[nH]2)c1`, for which the EC50 was 1810 nM in the experiment on Plasmodium falciparum [1] (3D7); 1820 nM with Plasmodium falciparum [1] (3D7, read-out: pEC50 (converted)); 200 nM with Plasmodium falciparum [2].
